{"sequences": {"note": "Chains of the proteins cited; added tags and fusions are not shown.", "UniProt P31652, whole entry": "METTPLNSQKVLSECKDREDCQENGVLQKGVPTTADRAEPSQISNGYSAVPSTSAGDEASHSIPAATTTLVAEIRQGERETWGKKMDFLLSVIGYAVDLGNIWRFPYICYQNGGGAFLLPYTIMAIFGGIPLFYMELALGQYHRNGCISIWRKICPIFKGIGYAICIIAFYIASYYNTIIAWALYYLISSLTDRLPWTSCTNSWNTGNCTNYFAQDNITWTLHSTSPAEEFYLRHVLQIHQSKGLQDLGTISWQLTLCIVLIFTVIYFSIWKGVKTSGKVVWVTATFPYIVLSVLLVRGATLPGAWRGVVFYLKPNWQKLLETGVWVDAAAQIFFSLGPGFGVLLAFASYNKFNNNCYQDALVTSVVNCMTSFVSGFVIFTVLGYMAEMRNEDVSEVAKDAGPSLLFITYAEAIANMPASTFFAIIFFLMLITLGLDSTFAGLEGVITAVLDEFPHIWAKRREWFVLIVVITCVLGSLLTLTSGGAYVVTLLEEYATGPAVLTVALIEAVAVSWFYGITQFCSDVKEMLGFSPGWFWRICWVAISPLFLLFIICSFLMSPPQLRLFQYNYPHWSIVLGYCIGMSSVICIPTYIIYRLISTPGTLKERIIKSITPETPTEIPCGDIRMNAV"}, "source": "paper PMC3894853", "about": "(2013)", "target": "SERT (Rattus norvegicus, UniProt P31652)", "test": "Radioligand binding assay for SERT, displacement of [3H]1", "conditions": "Table 3; selectivity ratio", "data": [{"smiles": "CCCN(C)CCCC1(c2ccc(F)cc2)OCc2cc(C#N)ccc21", "note": "(racemic) [Compound 40, 1-(4-Fluorophenyl)-1-(3-(methyl(propyl)amino)propyl)-1,3-dihydroisobenzofuran-5-carbonitrile]", "values": [{"measurement": "Ki(NET)/Ki (SERT)", "value": ">100"}]}]}
